Source: patent US20080090771A1, “ABUSE-RESISTANT H[…], COMPOSITIONS AND METHODS OF USING THE SAME” (SHIRE LLC, priority 2006, published 2008)

Experiments:
[1] = Oral bioavailability of hydrocodone conjugates in rats; conditions: for bioavailability (% HC) oral AUC / bioavailability (% HC) oral Cmax: rats, relative to hydrocodone; for Oral:IN Index AUC: ratio of oral to intranasal AUC (% HC); for Oral:IN Index Cmax: ratio of oral to intranasal Cmax (% HC)
[2] = Intranasal bioavailability of hydrocodone conjugates in rats; conditions: relative to hydrocodone

Substance	bioavailability (% HC) oral AUC [1] [% HC]	bioavailability (% HC) oral Cmax [1] [% HC]	Oral:IN Index AUC [1]	Oral:IN Index Cmax [1]	bioavailability (% HC) IN AUC [2] [% HC]	bioavailability (% HC) IN Cmax [2] [% HC]
Gly-Gly-Leu-Hydrocodone [Gly-Gly-Leu-HC]	82	126	1.06	2.03	77	62
(d)-Lys-(1)-Lys-Ile-Hydrocodone [(d)Lys(I)Lys-Ile-HC]	141	174	3.44	3.22	41	54
